From patent US8889732B2, “Fused heterocyclic compounds and thrombopoietin receptor activators” (Nissan Chemical Industries, Ltd., priority 2009, dated 2014)

The chains behind the UniProt entries cited, without tags or fusion partners. Residues count along the entry.
UniProt P40238, 26-635 limits assumed: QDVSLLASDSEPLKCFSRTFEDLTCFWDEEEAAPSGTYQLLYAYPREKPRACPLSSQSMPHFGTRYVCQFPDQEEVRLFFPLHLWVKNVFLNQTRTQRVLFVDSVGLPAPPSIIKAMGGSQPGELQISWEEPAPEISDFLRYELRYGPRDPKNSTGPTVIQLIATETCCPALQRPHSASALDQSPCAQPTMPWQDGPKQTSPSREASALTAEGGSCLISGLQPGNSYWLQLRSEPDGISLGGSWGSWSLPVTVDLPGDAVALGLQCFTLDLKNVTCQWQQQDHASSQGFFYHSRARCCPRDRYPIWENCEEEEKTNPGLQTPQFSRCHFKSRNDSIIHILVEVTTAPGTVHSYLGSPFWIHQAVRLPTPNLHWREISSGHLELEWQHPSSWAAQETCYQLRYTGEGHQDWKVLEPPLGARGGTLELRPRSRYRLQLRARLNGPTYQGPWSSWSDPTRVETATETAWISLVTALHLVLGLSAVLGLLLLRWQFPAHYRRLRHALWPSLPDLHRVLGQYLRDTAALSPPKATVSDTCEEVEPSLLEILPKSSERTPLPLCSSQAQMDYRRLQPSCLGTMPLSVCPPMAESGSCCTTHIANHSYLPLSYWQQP

Target: human thrombopoietin receptor (c-mpl) (Homo sapiens, UniProt P40238)
Experiment: Stimulation of proliferation of thrombopoietin-dependent cell line UT7/EPO-mpl (WST-8)
Conditions: concentration yielding growth rate corresponding to 50% of growth of UT-7/EPO-mpl in the presence of 10 ng/mL TPO, 4 days incubation
Protocol: The responses of thrombopoietin receptor to the compounds of Synthetic Examples of the present invention were assayed using a human leukemic cell line, UT7/EPO-mpl.
UT7/EPO-mpl is a stable transformed cell line obtained by introducing into human leukemic cell line UT7/EPO a vector that induces expression of human thrombopoietin receptor (c-mpl) under control of cytomegalovirus immediate-early promoter by the method of Takatoku et al. (J. Biol. Chem., 272:7259-7263 (1997)). […] These two cell lines were subcultured in IMDM (Invitrogen) containing 10% fetal bovine serum (Thermo Electron or BioWest) using a CO2 incubator (5% CO2, 37° C.).
The subcultured cells described above were washed twice with PBS and suspended in IMDM containing 10% fetal bovine serum at a cell density of 6×10^4 cells/ml. The cell suspension was transferred to a 96-well tissue culture plate (CORNING) in 100-μl aliquots. Then either thrombopoietin (Pepro Tech EC) or the compound of Synthetic Examples dissolved in dimethyl sulfoxide were diluted 83-fold with IMDM containing 10% fetal bovine serum and added to the aforementioned cell suspension in 20-μl aliquots. The cell suspension was incubated in a CO2 incubator (5% CO2, 37° C.) for 4 days. […] The formazan pigment generated was detected by measuring the absorbance at 450 nm with a 96-well microplate reader (Nihon Molecular Devices, Spectramax 190). […]

EC50: 5.4 ng/mL
SMILES: COC(=O)c1ccc(C(=O)N/N=C(\C)c2csc(-c3ccc4c(c3)CCCC4)c2O)cc1[N+](=O)[O-]
